Experimental data: patent EP4834898A1, “TDG INHIBITOR COMPOUND AND USE THEREOF” (dated 2026)

The chains behind the UniProt entries cited, without tags or fusion partners.
UniProt Q13569, whole entry: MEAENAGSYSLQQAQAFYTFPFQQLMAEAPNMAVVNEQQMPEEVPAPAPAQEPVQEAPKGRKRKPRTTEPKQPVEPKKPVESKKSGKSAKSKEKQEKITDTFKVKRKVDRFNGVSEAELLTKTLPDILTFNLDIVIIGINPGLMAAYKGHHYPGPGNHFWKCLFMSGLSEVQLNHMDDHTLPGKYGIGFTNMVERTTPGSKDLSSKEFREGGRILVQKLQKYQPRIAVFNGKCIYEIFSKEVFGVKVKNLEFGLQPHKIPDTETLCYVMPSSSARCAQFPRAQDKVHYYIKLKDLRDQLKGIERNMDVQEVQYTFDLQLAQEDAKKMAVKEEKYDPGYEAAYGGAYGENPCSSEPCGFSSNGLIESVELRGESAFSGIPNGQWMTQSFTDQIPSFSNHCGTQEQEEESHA

Biological target: His-tagged TDG protein (Homo sapiens, UniProt Q13569)
Test: HTRF assay: inhibition of the binding of TDG to double-stranded DNA substrates
Conditions: read-out: Activity, IC50 class, TDG 40 nM, Biotin-labeled dsDNA substrate 40 nM, 4PL fit
Method: HTRF (Homogeneous Time-Resolved Fluorescence) technology was used to evaluate the inhibitory effects of the compounds on the binding of TDG to double-stranded DNA substrates.
Microplate reader (manufacturer: Perkin Elmer; model: Envision multilabel reader equipped with HTRF module) and Echo 550 (manufacturer: Labcyte; model: Echo 550).
• 1. Preparation of compound concentration gradient: Test compounds were prepared at a starting concentration of 250 µM, with 3-fold serial dilution, 10 concentrations, and duplicate wells. In a 384-well plate, the compounds were gradient-diluted to 40× final concentration solutions at 10 different concentrations. Then 500 nl was transferred to a 384-well reaction plate using Echo 550 for later use. To the negative control wells and positive control wells, 500 nl of 100% DMSO or Biotin-unlabeled dsDNA substrate was added, respectively. • 2. Add 1.5 µl/well of Epigeneous Binding Domain diluent buffer to the 384-well plate, and centrifuge at 1000 rpm for 1 min. • 3. Add 4 µl of 5× final concentration of His-tagged TDG protein (final concentration 40 nM, diluted with Epigeneous Binding Domain diluent buffer) to the 384-well plate, centrifuge at 1000 rpm for 1 min, and incubate at room temperature for 10 min. • 4. Add 4 µl of 5× final concentration of Biotin-labeled dsDNA substrate (final concentration 40 nM, diluted with Epigeneous Binding Domain diluent buffer) to the 384-well plate, centrifuge at 1000 rpm for 1 min, and incubate at room temperature for 30 min. • 5. Add 5 µl of 4× final concentration of Streptavidin-XL665 (final concentration 5 nM, diluted with Epigeneous Binding Domain Detection buffer) to the 384-well plate, and centrifuge at 1000 rpm for 1 min. • 6. Add 5 µl of 4× final concentration of MAb Anti-6HIS-Eu cryptate Gold (final concentration 0.1 µg/ml, diluted with Epigeneous Binding Domain Detection buffer) to the 384-well plate, and centrifuge at 1000 rpm for 1 min.
Incubate overnight at 4 °C, and read HTRF on the microplate reader.
• 1. Calculation of Ratio value for each well Ratio = Signal 665 nm / Signal 620 nm × 104. • 2. Calculation of delta Ratio value for each well delta Ratio = Ratio standard or sample - Ratio standard 0 (negative control). • 3. IC50 values were fitted using a four-parameter logistic (4PL) curve.

SMILES | IC50 [µM]
C#Cc1cc(O)c(C)cc1C1OC(=O)C2CC21 (stereo not drawn) | 5 to 50
CC(=O)Oc1cc(Br)c(C2OC(=O)C3CC32)c2ccccc12 (stereo not drawn) | < 0.5
COC(=O)CCc1cc(C2CCC(=O)O2)c(OC)cc1O (stereo not drawn) | 0.5 to 5
O=C1OC(c2c(C3=CCOCC3)cc(O)c3ccccc23)C2CC12 (stereo not drawn) | 0.5 to 5
O=C1CCC(c2c(Br)cc(OC(=O)[C@@H]3CCCN3)c3ccccc23)O1 (stereo partly drawn) | < 0.5
CC(=O)Oc1cc(-c2cnn(C)c2)c(C2CCC(=O)O2)c2ccccc12 (stereo not drawn) | 0.5 to 5
Cn1cc(-c2cc(O)c3ccccc3c2C2OC(=O)C3CC32)cn1 (stereo not drawn) | 0.5 to 5
COc1cc(O)c(C(C)(C)C)cc1C1OC(=O)C2CC21 (stereo not drawn) | 5 to 50
Cc1cc(C2OC(=O)C3CC32)c(N(C)C)cc1O (stereo not drawn) | < 0.5
COc1c(C2OC(=O)C3CC32)cc(C)c(O)c1OC (stereo not drawn) | 0.5 to 5
COc1cc(OC(C)=O)c(CCC(=O)N(C)C)cc1C1CCC(=O)O1 (stereo not drawn) | > 50
CCOC(=O)CCc1cc(C2CCC(=O)O2)c(OC)cc1O (stereo not drawn) | 0.5 to 5
COc1cc(O)c(CCC(=O)NC[C@H](NC(=O)CC2CCCCC2)C(=O)NCCOCCOCCC(=O)O)cc1C1CCC(=O)O1 (stereo partly drawn) | 0.5 to 5
CC(=O)Oc1cc(Cl)c(C2OC(=O)C3CC32)c2ccccc12 (stereo not drawn) | < 0.5
COc1cc(O)c(C)cc1C1CCC(=O)O1 (stereo not drawn) | < 0.5
CC(=O)Oc1cc(Br)c(C2CCC(=O)O2)c2ccccc12 (single isomer, unassigned) | 0.5 to 5
COc1cc(O)c(C2CCCCC2)cc1C1OC(=O)C2CC21 (stereo not drawn) | 0.5 to 5
COc1cc(O)cc(Oc2ccccc2)c1C1CCC(=O)O1 (stereo not drawn) | 5 to 50
COc1cc(O)c(CCC(=O)O)cc1C1CCC(=O)O1 (stereo not drawn) | < 0.5
Cc1cc(C2OC(=O)C3CC32)c(Br)cc1O (stereo not drawn) | 5 to 50
COc1cc(O)c(CCC(=O)N[C@H](CNC(=O)CC2CCCCC2)C(=O)O)cc1C1CCC(=O)O1 (stereo partly drawn) | 0.5 to 5
COc1cc(O)c(CCC(=O)O)cc1C1CC(C)(C)C(=O)O1 (stereo not drawn) | 5 to 50
COCc1c(O)c(C)cc(C2OC(=O)C3CC32)c1OC (stereo not drawn) | 0.5 to 5
Cc1cc(C2OC(=O)C3CC32)c(/C=C/c2ccccc2)cc1O (stereo not drawn) | 0.5 to 5

SMILES | IC50 [µM]
CN(C)c1cc(O)cc(Cl)c1C1OC(=O)C2CC21 (stereo not drawn) | < 0.5
NS(=O)(=O)Oc1cc(Br)c(C2OC(=O)C3CC32)c2ccccc12 (stereo not drawn) | < 0.5
Cc1cc(C2OC(=O)C3CC32)c(F)cc1O (stereo not drawn) | 0.5 to 5
O=C1CCC(c2c(Br)cc(O)c3cccnc23)O1 (stereo not drawn) | < 0.5
C=CC(=O)N1CCCCC1CC(=O)NCC(NC(=O)CCc1cc(C2CCC(=O)O2)c(OC)cc1O)C(=O)O (stereo not drawn) | 0.5 to 5
Cn1cc(-c2cc(O)c3ccccc3c2C2CCC(=O)O2)cn1 (stereo not drawn) | < 0.5
Cn1ncc(-c2cc(O)c3ccccc3c2C2CCC(=O)O2)c1-c1ccccc1 (stereo not drawn) | 0.5 to 5
O=C1CCC(c2c(-c3cccc4c3ccn4C3CCOCC3)cc(O)c3ccccc23)O1 (stereo not drawn) | 0.5 to 5
O=C1CCC(c2c(-c3cnn(-c4ccccc4)c3-c3ccccc3)cc(O)c3ccccc23)O1 (stereo not drawn) | 5 to 50
Cc1cc(C2OC(=O)C3CC32)c(S(C)(=O)=O)cc1O (stereo not drawn) | > 50
COc1cc(C2OC(=O)C3CC32)c(OC)cc1O (stereo not drawn) | < 0.5
CS(=O)(=O)c1cc(O)c2ccccc2c1C1CCC(=O)O1 (stereo not drawn) | 5 to 50
COc1cc(O)c(Br)cc1C1CCC(=O)O1 (stereo not drawn) | 5 to 50
O=C1CCC(c2c(Br)cc(OC(=O)c3ccccc3[N+](=O)[O-])c3ccccc23)O1 (stereo not drawn) | 0.5 to 5
COc1cc(O)c(C2CC2)cc1C1OC(=O)C2CC21 (stereo not drawn) | 0.5 to 5
COc1cc(OC(C)=O)ccc1C1CCC(=O)O1 (stereo not drawn) | 5 to 50
COc1cc(S)ccc1C1CCC(=O)O1 (stereo not drawn) | < 0.5
CC(=O)Oc1cc(-c2cnc3ccccc3c2)c(C2CCC(=O)O2)c2ccccc12 (stereo not drawn) | < 0.5
Cc1cc(C2OC(=O)C3CC32)c(-c2ccccc2)cc1O (stereo not drawn) | 5 to 50
Cc1cc(C2OC(=O)C3CC32)c(N2CCN(C)CC2)cc1O (stereo not drawn) | 5 to 50
Cn1cc(-c2cc(O)c3cccnc3c2C2CCC(=O)O2)cn1 (stereo not drawn) | 0.5 to 5
COc1cc(O)c(-c2ccccc2)cc1C1CCC(=O)O1 (stereo not drawn) | 0.5 to 5
COc1cc(O)c(CCC(=O)NC[C@@H](NC(=O)CC2CCCCC2)C(=O)NCCOCCOCCC(=O)O)cc1C1CCC(=O)O1 (stereo partly drawn) | 0.5 to 5
Cc1cc(C2OC(=O)C3CC32)c(-c2cncnc2)cc1O (stereo not drawn) | 5 to 50

SMILES | IC50 [µM]
Nc1ccccc1C(=O)Oc1cc(Br)c(C2CCC(=O)O2)c2ccccc12 (stereo not drawn) | < 0.5
O=C1CCC(c2c(Br)cc(O)c3ccccc23)O1 (stereo not drawn) | < 0.5
O=C1CCC(c2c(C(F)(F)F)cc(O)c3ccccc23)O1 (stereo not drawn) | 0.5 to 5
COc1cc(O)c(CCC(=O)N[C@@H](CNC(=O)CC2CCCCC2)C(=O)NCCOCCOCCC(=O)O)cc1C1CCC(=O)O1 (stereo partly drawn) | < 0.5
Cc1cc(C2OC(=O)C3CC32)c(OC2CCOCC2)cc1O (stereo not drawn) | 0.5 to 5
Cc1cc(C2OC(=O)C3CC32)c(Cl)cc1O (stereo not drawn) | 5 to 50
COCCN(C)c1cc(O)c(C)cc1C1CCC(=O)O1 (stereo not drawn) | 0.5 to 5
COc1c(C2OC(=O)C3CC32)cc(C)c(O)c1C (stereo not drawn) | < 0.5
O=C1CCC(c2c(-c3cnc4ccccc4c3)cc(O)c3ccccc23)O1 (stereo not drawn) | < 0.5
COc1cc(O)c(C)cc1C1OC(=O)C2C1C2(C)C (stereo not drawn) | 5 to 50
O=C1CC2CCc3cc(O)cc(Br)c3C2O1 (stereo not drawn) | 5 to 50
C=CC(=O)N1CCN(Cc2cc(C3OC(=O)C4CC43)c(OC)cc2O)CC1 (stereo not drawn) | 0.5 to 5
N#Cc1cc(O)c2ccccc2c1C1CCC(=O)O1 (stereo not drawn) | 0.5 to 5
Cc1cc(C2OC(=O)C3CC32)c(-c2cnn(C)c2)cc1O (stereo not drawn) | 5 to 50
Cc1cc(C2OC(=O)C3CC32)c(C#C[Si](C(C)C)(C(C)C)C(C)C)cc1O (stereo not drawn) | > 50
COc1cc(O)c(CCC(=O)O)cc1C1OC(=O)C2CC21 (stereo not drawn) | < 0.5
COc1cc(O)ccc1C1CC(c2ccccc2)C(=O)O1 (stereo not drawn) | 0.5 to 5
COC(=O)OCOc1cc(Br)c(C2OC(=O)C3CC32)c2ccccc12 (stereo not drawn) | 5 to 50
COc1cc(O)c(C)c(C)c1C1OC(=O)C2CC21 (stereo not drawn) | 0.5 to 5
COC(=O)CCc1cc(C2OC(=O)C3CC32)c(OC)cc1O (stereo not drawn) | 0.5 to 5
C=Cc1cc(O)c(C)cc1C1OC(=O)C2CC21 (stereo not drawn) | 0.5 to 5
O=C1CCC(c2c(-c3cccnc3)cc(O)c3ccccc23)O1 (stereo not drawn) | 0.5 to 5
O=C1CCC(c2ccc(O)c3c2OCCO3)O1 (stereo not drawn) | < 0.5
COc1cc(O)c(CCC(=O)N(C)C)cc1C1CCC(=O)O1 (stereo not drawn) | 0.5 to 5

SMILES | IC50 [µM]
COc1cc(O)c(CCC(=O)OC(C)C)cc1C1CCC(=O)O1 (stereo not drawn) | 0.5 to 5
COc1cc(OC)c(Cl)c(C(=O)Oc2cc(Br)c(C3CCC(=O)O3)c3ccccc23)c1Cl (stereo not drawn) | > 50
CCN(CC)c1cc(O)c(C)cc1C1OC(=O)C2CC21 (stereo not drawn) | 0.5 to 5
COc1cc(O)c(C#N)cc1C1CCC(=O)O1 (stereo not drawn) | > 50
COc1cc(O)cc(Br)c1C1CCC(=O)O1 (stereo not drawn) | 5 to 50
CCCc1c(O)ccc(C2OC(=O)C3CC32)c1OC (stereo not drawn) | 0.5 to 5
CCCc1cc(C2OC(=O)C3CC32)c(OC)cc1O (stereo not drawn) | < 0.5
O=C1CCC(c2c(Br)cc(OC(=O)C3CCOCC3)c3ccccc23)O1 (stereo not drawn) | < 0.5
COc1cc(OC(C)=O)ccc1C1OC(=O)C2CC21 (stereo not drawn) | 5 to 50
CCc1cc(O)c(C)cc1C1OC(=O)C2CC21 (stereo not drawn) | 0.5 to 5
COc1cc2c(cc1C1CCC(=O)O1)CCC(=O)O2 (stereo not drawn) | 5 to 50
O=C1CCC(c2c(Br)cc(OC(=O)c3ccc(C(F)(F)F)cc3)c3ccccc23)O1 (stereo not drawn) | < 0.5
COc1cc(O)c(CCC(=O)N[C@H](CNC(=O)CC2CCCCC2)C(=O)NC2CCCCC2)cc1C1CCC(=O)O1 (stereo partly drawn) | 5 to 50
O=C1CCC(c2c(Cl)cc(O)c3ccccc23)O1 (stereo not drawn) | < 0.5
Cc1cc(C2OC(=O)C3CC32)c(OCC(F)(F)F)cc1O (stereo not drawn) | 0.5 to 5
O=C1CCC(c2c(-c3cnccc3-c3ccccc3)cc(O)c3ccccc23)O1 (stereo not drawn) | 0.5 to 5
COc1cc(O)c(CCC(=O)NC[C@@H](NC(=O)CC2CCCCC2)C(=O)O)cc1C1CCC(=O)O1 (stereo partly drawn) | 0.5 to 5
COc1cc(O)ccc1C1OC(=O)C2CC21 (stereo not drawn) | 0.5 to 5
O=C1CCC(c2ccc(O)c3cccnc23)O1 (stereo not drawn) | 0.5 to 5
COc1cc(O)c(CCC(=O)N[C@H](CNC(=O)CC2CCCCC2)C(=O)NCCOCCOCCC(=O)O)cc1C1CCC(=O)O1 (stereo partly drawn) | < 0.5
COC(=O)Oc1cc(Br)c(C2CCC(=O)O2)c2ccccc12 (stereo not drawn) | 0.5 to 5
CCOc1cc(O)c(C)cc1C1OC(=O)C2CC21 (stereo not drawn) | 0.5 to 5
O=C1CCC(c2c(Br)cc(OC(=O)c3ccccc3)c3ccccc23)O1 (stereo not drawn) | 0.5 to 5
Cc1cc(C2OC(=O)C3CC32)c(N(C)CCN(C)C(=O)OC(C)(C)C)cc1O (stereo not drawn) | 0.5 to 5
